According to PMC11630639, “Real-time single-molecule imaging of CaMKII-calmodulin interactions” (Biophysical Journal, 2024):

How the values were obtained:
[1] = molecular target: Venus-CaMKIIβ K43R holoenzyme (mouse) (UniProt P28652); assay: single-molecule TIRF microscopy (colocalisation, occupancy and residence times); V-CaMKII held on a coverslip by GFP antibody, BSA-blocked; r-CAM washed in AB-.Ca2+ (25 mM imidazole-HCl, 25 mM KCl, 4 mM MgCl2, pH 7.4, 0.5 mM calcium, no ATP); apparent rates from step records
[2] = molecular target: Venus-CaMKIIβ T287D holoenzyme (mouse) (UniProt P28652); assay: as above
[3] = molecular target: Venus-tagged CaMKIIβ kinase domain (βΔ315) (mouse); assay: as above
[4] = molecular target: Venus-CaMKIIβ K43R holoenzyme (mouse) (UniProt P28652); assay: single-molecule TIRF microscopy (colocalisation, occupancy and residence times); V-CaMKII held on a coverslip by GFP antibody, BSA-blocked; r-CAM washed in AB+.Ca2+ (25 mM imidazole-HCl, 25 mM KCl, 4 mM MgCl2, pH 7.4, 0.5 mM calcium, 2 mM ATP); apparent rates from step records
[5] = molecular target: Venus-CaMKIIβ T287.306-307A holoenzyme (mouse) (UniProt P28652); assay: as above
[6] = molecular target: Venus-CaMKIIβ T287A holoenzyme (mouse) (UniProt P28652); assay: as above
[7] = molecular target: Venus-CaMKIIβ wild-type holoenzyme (mouse) (UniProt P28652); assay: as above
[8] = molecular target: Venus-tagged CaMKIIα association-domain mutant F394A (mouse) (UniProt P11798); assay: as above
[9] = molecular target: Venus-tagged CaMKIIβ association-domain mutant F458A (mouse) (UniProt P28652); assay: as above
[10] = molecular target: Venus-tagged CaMKIIβ kinase domain (βΔ315) (mouse); assay: as above

kτ1 (fast component of the biexponential residence time fit) [1]: 3.18 s⁻¹
(τ+/τ−) ratio of the residence time distribution at 3 pM r-CAM [2]: 0.23
fold affinity relative to the monomer [2]: > 10000 fold
mean r-CAM occupancy of the holoenzyme at 3 pM r-CAM [2]: 70%
kτ (apparent dissociation rate from residence times) [3]: 0.7 s⁻¹
(τ+/τ−) ratio of the residence time distribution at 30 nM r-CAM [4]: 0.89
(τ+/τ−) ratio of the residence time distribution at 30 nM r-CAM [5]: 0.65
(τ+/τ−) ratio of the residence time distribution at 30 nM r-CAM [6]: 1.76
fON (frequency of ON events) at 30 nM r-CAM [7]: 0.045 s⁻¹
fold lower Ai than the monomer [7]: 30 fold
kτ after correction for photobleaching (apparent dissociation rate) at 30 nM r-CAM [7]: 0.315 s⁻¹
mean r-CAM occupancy (NCAM) per holoenzyme at 30 nM r-CAM [7]: 2.6
fON (frequency of ON events) at 30 nM r-CAM [8]: 0.03 s⁻¹
fold decrease in kτ relative to the β monomer at 300 nM r-CAM [8]: 5 fold
fold increase in fON relative to the β monomer at 300 nM r-CAM [8]: < 2 fold
kτ (apparent dissociation rate) at 30 nM r-CAM [8]: 0.59 s⁻¹
fON (frequency of ON events) at 30 nM r-CAM [9]: 0.07 s⁻¹
kτ (apparent dissociation rate) at 30 nM r-CAM [9]: 0.53 s⁻¹
Ai (affinity index, r-CAM x kτ/fON, heuristic substitute for KD) [10]: 4.1 µM
kτ (apparent dissociation rate from residence times) [10]: 0.7 s⁻¹
Substance: wheat germ rhodamine-calmodulin loaded with Ca2+ (from UniProt P04464 1-149) (natural protein)
